Source: article PMC4673895 (DNA repair, 2015)
Values belong to the binder of their own block, whether it stands above or below them.

Tests used:
[1] = target: his6-TDP[…]A (human, H263A); experiment: pull-down
[2] = target: his6-TDP[…]R (human, H493R); experiment: pull-down
[3] = target: his6-TDP1 (human tyrosyl-DNA phosphodiesterase, wild type) (human); experiment: native gel or EMSA
[4] = target: N-terminally FLAG-tagged TDP1 (FLAG-TDP1) (human); experiment: native gel or EMSA

- binding result [1]: binds
- binding result [2]: binds
B1: MBP-XLF (maltose-binding protein-tagged XLF, wild type) (natural protein, human, UniProt Q9H9Q4 1-299, looked up)
chain: MEELEQGLLMQPWAWLQLAENSLLAKVFITKQGYALLVSDLQQVWHEQVDTSVVSQRAKELNKRLTAPPAAFLCHLDNLLRPLLKDAAHPSEATFSCDCVADALILRVRSELSGLPFYWNFHCMLASPSLVSQHLIRPLMGMSLALQCQVRELATLLHMKDLEIQDYQESGATLIRDRLKTEPFEENSFLEQFMIEKLPEACSIGDGKPFVMNLQDLYMAVTTQEVQVGQKHQGAGDPHTSNSASLQGIDSQCVNQPEQLVSSAPTLSAPEKESTGTSGPLQRPQLSKVKRKKPRGLFS

- binding result [3]: binds
B2: N-terminally FLAG-tagged XLF (FLAG-XLF) (natural protein, human, UniProt Q9H9Q4 1-299, looked up)
chain: B1 chain

- binding result [3]: binds
- binding result [4]: binds
B3: his6-XLF (wild type) (natural protein, human, UniProt Q9H9Q4 1-299, looked up)
chain: B1 chain
